In PubChem BioAssay AID624126 (The Scripps Research Institute Molecular Screening Center, 2012):
Only a part is listed here, and it is no random draw. Some salts and complexes are drawn in separate pieces, as the source files them; their charges need not balance. Calls of active or inactive are those of the source.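 Rule for the calls: active = activation above its plate's cutoff, the mean activation of sample wells plus 3 SD; inactive = the rest.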

Amino acid sequences for entries named in this document (tags omitted).
UniProt P08173, whole entry: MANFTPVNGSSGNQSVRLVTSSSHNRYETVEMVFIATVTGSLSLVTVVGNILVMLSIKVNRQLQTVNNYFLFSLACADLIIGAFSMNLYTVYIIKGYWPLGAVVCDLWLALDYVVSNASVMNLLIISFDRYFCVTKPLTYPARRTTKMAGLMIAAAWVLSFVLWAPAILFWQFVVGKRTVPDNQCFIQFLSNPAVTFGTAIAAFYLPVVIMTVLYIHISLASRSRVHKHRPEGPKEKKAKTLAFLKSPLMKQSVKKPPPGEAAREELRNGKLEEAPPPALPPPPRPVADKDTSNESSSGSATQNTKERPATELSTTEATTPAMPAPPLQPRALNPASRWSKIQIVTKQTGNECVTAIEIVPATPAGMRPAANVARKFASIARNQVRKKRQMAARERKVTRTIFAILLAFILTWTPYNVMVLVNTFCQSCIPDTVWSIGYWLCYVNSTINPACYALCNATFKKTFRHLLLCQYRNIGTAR

target: Muscarinic acetylcholine receptor M4 (Homo sapiens) (UniProt P08173); test: human M4 muscarinic receptor positive allosteric modulators, primary screen, CHO-K1 cells, Fluo-8 calcium fluorescence (AID 624126); settings: CHO-K1 hM4/Gqi5, Fluo-8 calcium fluorescence, ACh EC20; at 3 µM; active compounds read high; 0% = ACh EC20, 100% = maximal ACh

Structure (SMILES) | activation
O=C(O)c1cccc(Nc2c([N+](=O)[O-])cc([N+](=O)[O-])cc2[N+](=O)[O-])c1 | inactive: -4.54%
CC1=NCCc2c1[nH]c1ccccc21.O=[N+]([O-])c1cc([N+](=O)[O-])c(O)c([N+](=O)[O-])c1 | inactive: 3.41%
COc1ccccc1OP(C)(=O)Nc1cccc(Br)c1 (centres undefined) | inactive: -3.56%
COc1cc(C(=O)NCC2(N3CCOCC3)CCCCC2)cc(Cl)c1OC(C)C | inactive: -4.67%
CCOC(=O)c1ccc(NP(C)(=O)Oc2cc(C)cc(C)c2)cc1 (centres undefined) | inactive: 0.17%
Cc1cc(C)cc(OP(C)(=O)Nc2ccc(C)cc2C)c1 (centres undefined) | inactive: 5.06%
Cc1ccc(C)c(NP(C)(=O)Oc2ccccc2)c1 (centres undefined) | inactive: 4.54%
CP(=O)(Nc1cccc(Br)c1)Oc1ccccc1 (centres undefined) | inactive: -1.6%
Cc1cc(C)cc(OP(C)(=O)Nc2ccccn2)c1 (centres undefined) | inactive: 3.63%
O=[N+]([O-])c1cc([N+](=O)[O-])c(-n2nnc3ccccc32)c([N+](=O)[O-])c1 | inactive: 5.87%
CN(Cc1cccnc1)C(=O)COc1ccc(Cl)c(Cl)c1.O=[N+]([O-])c1cc([N+](=O)[O-])c(O)c([N+](=O)[O-])c1 | inactive: 9.13%
O=[N+]([O-])c1cc([N+](=O)[O-])c(-c2cnn(-c3ccccc3)c2)c([N+](=O)[O-])c1 | inactive: 7.62%
Cc1nc2ccc3ccccc3c2s1.O=[N+]([O-])c1cc([N+](=O)[O-])c(O)c([N+](=O)[O-])c1 | inactive: 3.51%
CCOC(=O)C(CC)C1=NC(C)(C)Cc2ccccc21.O=[N+]([O-])c1cc([N+](=O)[O-])c(O)c([N+](=O)[O-])c1 (centres undefined) | inactive: -3.65%
O=[N+]([O-])c1cc([N+](=O)[O-])c(Nc2nnnn2CCO)c([N+](=O)[O-])c1 | inactive: 1.66%
CC1=C2N=C(C=C3N=C(C(C)=C4[N-][C@@](C)([C@@H]5N=C1[C@](C)(CCC(=O)NC[C@@H](C)OP(=O)([O-])O[C@H]1[C@@H](O)[C@@H](n6cnc7cc(C)c(C)cc76)O[C@@H]1CO)[C@H]5CC(N)=O)[C@@](C)(CC(N)=O)[C@@H]4CCC(N)=O)[C@@](C)(CC(N)=O)[C@@H]3CCC(N)=O)C(C)(C)[C@@H]2CCC(N)=O.[C-]#N.[Co+3] | inactive: 3.83%
CN(C)C1(CNC(=O)c2ccc(S(C)(=O)=O)cc2)CCCCC1 | inactive: 4.14%
CN1CCCCC1COC(=O)C1(O)c2ccccc2CCc2ccccc21 (centres undefined) | inactive: -14.9%
COc1ccccc1OP(C)(=O)Nc1c(C)cccc1C (centres undefined) | inactive: 9.11%
COc1ccc(-c2ccccn2)cc1.O=[N+]([O-])c1cc([N+](=O)[O-])c(O)c([N+](=O)[O-])c1 | inactive: 5.86%
CP(=O)(Nc1ccc(SC(F)(F)F)cc1)Oc1ccccc1 (centres undefined) | inactive: -5.14%
CCCOc1ccc(NP(C)(=O)Oc2ccc(Cl)cc2)cc1 (centres undefined) | inactive: 7.5%
CCCCOc1ccc(C(=O)NCC2(N3CCCCC3)CCCCC2)cc1OC | inactive: -1.85%
CP(=S)(Nn1cnnc1)Oc1ccccc1 (centres undefined) | inactive: 9.68%
CP(=O)(Nc1ccccc1Br)Oc1ccccc1 (centres undefined) | inactive: 6.87%
COc1ccccc1OP(C)(=O)Nc1ccccc1 (centres undefined) | inactive: 5.6%

Structure (SMILES) | activation
CP(=O)(Oc1ccccc1)OC(c1ccccc1)C(F)(F)F (centres undefined) | inactive: 0.48%
CP(=O)(Nc1ccc(SC(F)(F)F)cc1)Oc1ccc(Cl)cc1 (centres undefined) | inactive: -9.87%
Cc1ccc(Nc2c([N+](=O)[O-])cc([N+](=O)[O-])cc2[N+](=O)[O-])cc1 | inactive: 2.98%
Cc1cccc(C)c1OP(C)(=O)Nc1ccc(SC(F)(F)F)cc1 (centres undefined) | inactive: -5.49%
Cc1cc(C)cc(OP(C)(=O)Nc2ccc(SC(F)(F)F)cc2)c1 (centres undefined) | inactive: 13.7%
CCc1ccc(OP(C)(=O)N2CCN(c3ccc([N+](=O)[O-])cc3)CC2)cc1 (centres undefined) | inactive: -12%
CP(=O)(NC(=O)Nc1ccccc1)Oc1ccccc1 (centres undefined) | inactive: -2.4%
O=[N+]([O-])c1cc([N+](=O)[O-])c(O)c([N+](=O)[O-])c1.c1ccc(Oc2ccncc2)cc1 | inactive: -5.47%
CCOC(=O)c1ccc(NP(C)(=O)Oc2ccc(OC)cc2)cc1 (centres undefined) | inactive: 3.36%
CCOP(C)(=S)SCC(=O)NC(C)C(=O)O (centres undefined) | inactive: 8.76%
CP(=O)(Nc1ccccn1)Oc1ccc(Cl)cc1 (centres undefined) | inactive: 5.66%
CCN(CC)CCCOC(=O)C(O)(c1ccccc1)c1ccccc1 | inactive: -26.3%
COc1ccccc1-c1ccccn1.O=[N+]([O-])c1cc([N+](=O)[O-])c(O)c([N+](=O)[O-])c1 | inactive: 20.5%
COc1cc(C(=O)NCC2(N3CCOCC3)CCCCC2)ccc1OCC(C)C | inactive: 12.6%
O=[N+]([O-])c1cc([N+](=O)[O-])c(Nc2cccnc2)c([N+](=O)[O-])c1 | inactive: -11.2%
O=[N+]([O-])c1ccc2c(c1)C=Nc1ccccc1O2 | inactive: 5.73%
Cc1cccc(C)c1OP(C)(N)=O (centres undefined) | inactive: 15.7%
CC(C)(C)c1ccc(OP(C)(=O)Nc2ccc(SC(F)(F)F)cc2)cc1 (centres undefined) | inactive: -6.23%
Cc1ccc(NP(C)(=O)Oc2ccccc2)c(C)c1 (centres undefined) | inactive: 2.95%
COc1ccccc1OP(C)(=O)Nc1ccc(C)cc1 (centres undefined) | inactive: 1.25%
CCOC(=O)c1ccc(NP(C)(=O)Oc2ccccc2)cc1 (centres undefined) | inactive: 3.87%
Cc1cc(C)cc(OP(C)(N)=O)c1 (centres undefined) | inactive: 17.4%
COc1ccc(OP(C)(=O)Nc2cccc(F)c2)cc1 (centres undefined) | inactive: -1.53%
COc1ccccc1OP(C)(=O)Nc1cc(Cl)ccc1C (centres undefined) | inactive: -0.68%
Cc1cc(C)cc(OP(C)(=O)Nc2cccc(C(F)(F)F)c2)c1 (centres undefined) | inactive: 1.7%
O=C1C(O)=C([N+](=O)[O-])C(=O)C(O)=C1[N+](=O)[O-] | inactive: 2.1%

Structure (SMILES) | activation
COc1ccccc1OP(C)(=O)Nc1ccc(C)c(C)c1 (centres undefined) | inactive: -11.9%
COc1ccc(OP(C)(=O)Nc2ccccc2Br)cc1 (centres undefined) | inactive: 18.4%
CP(=O)(OCCOc1ccccc1)OCCOc1ccccc1 | inactive: 3.5%
CP(=O)(Nc1ccc(Cl)cc1Cl)Oc1ccccc1 (centres undefined) | inactive: -2.57%
CCCCCCCCCCCCCCCC1C[N+](C)(C)CCOP(C)(=O)O1 (centres undefined) | inactive: -10.7%
COc1ccccc1OP(C)(=O)Nc1ccc(Br)cc1 (centres undefined) | inactive: -3.81%
COc1ccc(OP(C)(=O)Nc2ccccn2)cc1 (centres undefined) | inactive: 4.73%
CN(C)CCOC(=O)C(O)(c1ccccc1)C1CCCC1 (centres undefined) | inactive: -18.8%
O=[N+]([O-])c1cc([N+](=O)[O-])c(Nc2ccccn2)c([N+](=O)[O-])c1 | inactive: -7.73%
Cc1c(NP(C)(=O)Oc2ccc(C(C)C)cc2)c(=O)n(-c2ccccc2)n1C (centres undefined) | inactive: 1.54%
COc1ccccc1OP(C)(=O)Nc1ccc(C)cc1C (centres undefined) | inactive: 0.46%
CP(=O)(Nc1ccccn1)Oc1ccccc1 (centres undefined) | inactive: 2.73%
CCc1ccc(OP(C)(=O)O)cc1 | inactive: 22.2%
COc1ccc(OP(C)(=O)Nc2ccc(Br)cc2)cc1 (centres undefined) | inactive: -4.3%
CCN(CC)CC(O)COC(=O)C(O)(c1ccccc1)C1CCCCC1 (centres undefined) | inactive: -19.3%
O=C(OCCCN1CCCC1)C(O)(c1ccccc1)C1CCCCC1 (centres undefined) | inactive: -55.4%
COc1ccccc1OP(C)(=O)Nc1c(C)n(C)n(-c2ccccc2)c1=O (centres undefined) | inactive: 1.95%
CCc1ccc(OP(C)(=O)Nc2cccnc2)cc1 (centres undefined) | inactive: 6.86%
CP(=O)(Oc1ccccc1)N1CCOC1=O (centres undefined) | inactive: 4.95%
CC(C)(C)c1ccc(OP(C)(=O)O)cc1 | inactive: 6.79%
COc1ccccc1OP(C)(=O)Nc1ccccc1Br (centres undefined) | inactive: 7.73%
CP(=O)(Nc1ccc(Cl)cc1)Oc1ccc(F)cc1 (centres undefined) | inactive: 4.21%
CN(C)C(=O)c1c([N+](=O)[O-])cc([N+](=O)[O-])cc1[N+](=O)[O-] | inactive: 11.6%
CCOC(=O)c1ccc(NP(C)(=O)Oc2ccc(Cl)cc2)cc1 (centres undefined) | inactive: 2.84%
CP(=O)(OC12CC3CC(CC(C3)C1)C2)OC12CC3CC(CC(C3)C1)C2 | inactive: 15%
COc1ccc(OP(C)(=O)Nc2cccc(Br)c2)cc1 (centres undefined) | inactive: -7.25%

Structure (SMILES) | activation
CN(C)C1(CNC(=O)c2ccc(Cl)c(S(N)(=O)=O)c2)CCCCC1 | inactive: 2.03%
CN(C)CCOC(=O)C(O)(c1ccccc1)C1CCCCC1 (centres undefined) | inactive: -21%
COc1ccc(NP(C)(=O)Oc2ccccc2OC)cc1 (centres undefined) | inactive: 5.87%
O=[N+]([O-])c1ccc(OP2(=O)COCCO2)cc1 (centres undefined) | inactive: 9.73%
Cc1cc(-c2cccc3ccccc23)c(C)cn1.O=[N+]([O-])c1cc([N+](=O)[O-])c(O)c([N+](=O)[O-])c1 | inactive: 2.56%
O=[N+]([O-])c1cc([N+](=O)[O-])c(NCC2CCS(=O)(=O)C2)c([N+](=O)[O-])c1 (centres undefined) | inactive: 2.04%
Cc1c(C(c2ccc3c(c2)OCO3)c2c(C)n(C)n(-c3ccccc3)c2=O)c(=O)n(-c2ccccc2)n1C.O=[N+]([O-])c1cc([N+](=O)[O-])c(O)c([N+](=O)[O-])c1 | inactive: -1.85%
CP(=O)(Nc1ccc(SC(F)(F)F)cc1)Oc1ccc(F)cc1 (centres undefined) | inactive: -12.7%
CCOP(C)(=S)SCC(=O)NC(C)(CC)C(=O)O (centres undefined) | inactive: 5%
CP(=O)(Nc1ccc2c(c1)OCCO2)Oc1ccccc1 (centres undefined) | inactive: 3.11%
Cc1ccccc1NP(C)(=O)Nc1ccccc1C | inactive: -0.8%
O=[N+]([O-])c1cc([N+](=O)[O-])c(C(F)(F)F)c([N+](=O)[O-])c1O | inactive: 0.85%
O=[N+]([O-])c1cc([N+](=O)[O-])c(Nc2ccc(Cl)cc2)c([N+](=O)[O-])c1 | inactive: -5.92%
CP(=O)(Nc1ccccc1F)Oc1ccccc1 (centres undefined) | inactive: 6.99%
CC(C)c1ccc(OP(C)(=O)Nc2ccc(SC(F)(F)F)cc2)cc1 (centres undefined) | inactive: 0.46%
O=C(OC1CN2CCC1CC2)c1ccc([N+](=O)[O-])cc1 (centres undefined) | inactive: 14.8%
O=C(OCCN1CCN(CCOCc2ccccc2)CC1)C(O)(c1ccccc1)c1ccccc1 | inactive: -43.9%
COc1ccc2c(c1O)-c1c(O)c(OC)cc3c1[C@H](C2)[N+](C)(C)CC3.O=[N+]([O-])c1cc([N+](=O)[O-])c([O-])c([N+](=O)[O-])c1[O-] | inactive: 5.08%
CCN(CC)CCCNc1ccccc1[N+](=O)[O-].O=[N+]([O-])c1cc([N+](=O)[O-])c(O)c([N+](=O)[O-])c1 | inactive: -7.96%
CCOC(=O)c1ccc(NP(C)(=O)Oc2ccc(F)cc2)cc1 (centres undefined) | inactive: -4.31%
COc1ccc(OP(C)(=O)Nc2ccc(SC(F)(F)F)cc2)cc1 (centres undefined) | inactive: -6.23%
Cc1c([N+](=O)[O-])cc([N+](=O)[O-])c(Br)c1[N+](=O)[O-] | inactive: 6.53%
CCN(CC)CCCOC(=O)C(O)(c1ccccc1)C1CCCCC1 (centres undefined) | inactive: -18.5%
CP(=O)(Nc1ccccc1)Oc1ccc(F)cc1 (centres undefined) | inactive: 1.57%
O=[N+]([O-])c1cc([N+](=O)[O-])c(OC2CCCCC2O)c([N+](=O)[O-])c1 (centres undefined) | inactive: 1.56%
CCCCCOc1ccc(NP(C)(=O)Oc2ccc(Cl)cc2Cl)cc1 (centres undefined) | inactive: -1.78%
